Values quoted from earlier work in patent US12667624B2, “GIP derivative, long-acting conjugate thereof, and pharmaceutical composition comprising same” (HANMI PHARM. CO., LTD., priority 2020, dated 2026).

Settings: J Clin Endocrinol Metab. 2000; cited from earlier work

## glucose-dependent insulinotropic polypeptide [native GIP]
  half-life of the GIP in the human body: about 7 minutes
